One data set deals with humans. The following applies: Boehringer Ingelheim product insert; cited from earlier work.
Data set [1] can be described thus: Solution hold stability by HPLC. The following applies: solution in IPA/DI water with 37% HCl, stirred for 24 hours.

The values below come from patent US20130079526A1, “Synthesis of Chirally Purified Substituted Benzothiazole Diamines” (priority 2010, published 2013).

Structures are written as SMILES.

As for `CCCN[C@H]1CCc2nc(N)sc2C1` [pramipexole, (6S)-4,5,6,7-tetrahydro-N6-propyl-2,6-benzothiazole-diamine], the “maximally tolerated dose for humans” value in the data set with humans is given as 4.5 mg/day.

In the case of `CCCN[C@@H]1CCc2nc(N)sc2C1.Cc1ccc(S(=O)(=O)O)cc1` [Pramipexole.p-TSA, (6R)-4,5,6,7-tetrahydro-N6-propyl-2,6-benzothiazole-diamine p-TSA Salt], the “degradation by HPLC” value in data set [1] is on record as “no degradation was observed”.
